This is an account of results in ChEMBL document CHEMBL1144851, “Opioids and efflux transporters. Part 2: P-glycoprotein substrate activity of 3- and 6-substituted morphine analogs” (J Med Chem, 2008).

Sequences of proteins named here, by UniProt entry; tags and fusion partners are left off. A change or cut given only in a name is not applied to a line headed by its entry.
UniProt P41145: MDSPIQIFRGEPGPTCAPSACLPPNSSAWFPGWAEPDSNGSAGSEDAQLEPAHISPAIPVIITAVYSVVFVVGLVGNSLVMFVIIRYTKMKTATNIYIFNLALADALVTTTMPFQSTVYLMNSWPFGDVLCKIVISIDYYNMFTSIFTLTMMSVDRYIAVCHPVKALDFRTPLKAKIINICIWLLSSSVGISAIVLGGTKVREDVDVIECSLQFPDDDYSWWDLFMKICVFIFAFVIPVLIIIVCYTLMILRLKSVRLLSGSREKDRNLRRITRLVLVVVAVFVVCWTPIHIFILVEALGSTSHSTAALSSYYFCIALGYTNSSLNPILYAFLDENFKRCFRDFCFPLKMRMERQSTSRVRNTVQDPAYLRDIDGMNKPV

Structures are written as SMILES.

For the experiment, the target named is Kappa-type opioid receptor (Homo sapiens, UniProt P41145). The experiment can be described thus: Displacement of [3H]diprenorphine from recombinant kappa opioid receptor expressed in CHO cells. It is filed as cell-based. On the technique in general: Loss of bound radioactivity is the signal in a displacement assay; it reports binding, not function.

In the case of `COc1ccc2c3c1O[C@H]1[C@@H](O)C=C[C@H]4[C@@H](C2)N(C)CC[C@@]341` [CODEINE], the inhibition constant Ki turned out to be 25.4 µM.

In general, Ki refers to a dissociation constant, usually derived from enzyme kinetics or from competition with a known ligand.
